# Yeast mating assay 2: variants of the scFv Ab-91

Reference: Engelhart et al. 2022, doi:10.1038/s41597-022-01779-4. File: FLAb, binding data.

All variants were tested on one target, the spike HR2 peptide PDVDLGDISGINAS (SARS-CoV-2).

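Library AAYL51 holds single substitutions and randomly drawn double and triple substitutions in the CDRs. Affinity was read by AlphaSeq, a pooled yeast mating assay with surface-displayed partners. After mating in shaken culture at 30 °C for 16 h, diploids were selected and their barcode pairs sequenced. The ratio of observed to expected reads was calibrated, replicate by replicate, on BCL2-family standards whose Kd was known from biolayer interferometry. Mating was done three times.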

Parent scFv Ab-91: VL joined to VH by a 15-residue (Gly4Ser)3 linker. Changes lie in the heavy chain CDRs alone.
VL: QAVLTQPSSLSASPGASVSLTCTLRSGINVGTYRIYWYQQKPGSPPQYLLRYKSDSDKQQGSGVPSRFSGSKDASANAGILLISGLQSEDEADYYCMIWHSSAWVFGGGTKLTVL
VH: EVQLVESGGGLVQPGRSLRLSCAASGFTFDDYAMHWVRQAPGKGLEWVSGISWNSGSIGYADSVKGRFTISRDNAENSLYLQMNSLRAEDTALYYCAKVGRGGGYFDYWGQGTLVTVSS

Each variant is given by its three heavy chain CDRs, as the data file delimits them; those of the parent are GFTFDDYAMH, GISWNSGSIGYADSVK, VGRGGGYFDY. Scale: log10 of Kd in nM, estimated from mating counts; low values are strong binders. Averages over replicates are reported, and they cover detected replicates only. "n.d." means that the variant was in the library but no mating with the target was seen in that replicate; the authors take this as a sign of poor binding, and no number exists.

| # | CDR-H1 | CDR-H2 | CDR-H3 | log10 Kd (nM) by replicate | log10 Kd (nM), mean | control signals |
|---|---|---|---|---|---|---|
| 1 | WFTFDDYAMH | GISWNSPSIGYADSVK | VGRSGGYFDY | n.d. / n.d. / 3.79 | 3.79 | 1 of 9 (3.94) |
| 2 | GCTFDDYAMH | GISWNNGSIGYADSVK | LGRGGGYFDY | n.d. / 5.31 / n.d. | 5.31 | 1 of 9 (5.45) |
| 3 | GFTFDDYAMH | GTSWNSRSYGYADSVK | VGRGGGYFDY | n.d. / 6.63 / 5.56 | 6.09 | 6 of 9 (4.66) |
| 4 | GFTIDDYAMH | KISWNSCSIGYADSVK | VGRGGGYFDY | n.d. / 3.95 / n.d. | 3.95 | 6 of 9 (4.30) |
| 5 | GFFFDWYAMH | GISWNSGSMGYADSVK | VGRGGGYFDY | 1.28 / 1.34 / 0.78 | 1.13 | 0 of 9 |
| 6 | GFTFDDYAMH | GIGWNSGSIGYADSVA | VGRGGGYNDY | n.d. / n.d. / n.d. | n.d. | 2 of 9 (3.42) |
| 7 | GFTWDDYDMH | GISWNSGSIGYADSVK | VGRGGGIFDY | 6.15 / n.d. / n.d. | 6.15 | 1 of 9 (4.46) |
| 8 | GFTYDDYAMH | GISWNAGSIGYADSVK | VGRGGGYFDG | 2.46 / 2.25 / 2.83 | 2.51 | 1 of 9 (4.42) |
| 9 | EFTFDDYAMH | LISWNSGSIGYADSVK | YGRGGGYFDY | n.d. / n.d. / n.d. | n.d. | 0 of 9 |
| 10 | GFTFYDYAMH | GISWNSGSIGYADSVK | RGRGGGYFDY | n.d. / n.d. / n.d. | n.d. | 0 of 9 |
| 11 | GFTFDDYAMH | GISWNSGSIGYADSVS | NGRGGGYFDP | 5.36 / 5.49 / n.d. | 5.43 | 1 of 9 (5.42) |
| 12 | GFTIDDYAMH | EISWNSWSIGYADSVK | VGRGGGYFDY | 5.56 / n.d. / n.d. | 5.56 | 4 of 9 (5.05) |
| 13 | AFTFDDYAMH | GISWNSGSIGYADSYK | VGRGGGYFDY | n.d. / n.d. / n.d. | n.d. | 0 of 9 |
| 14 | GFTFQCYAMH | GISWNSGSIGYADSVK | VGRGWGYFDY | 4.93 / n.d. / n.d. | 4.93 | 1 of 9 (3.47) |
| 15 | GFTFDDYAMH | GICWNSGSIGYADSVK | VGRGGGYFDY | 4.86 / n.d. / n.d. | 4.86 | 3 of 9 (4.75) |
| 16 | GFTFDDYAMH | GISWNSGSIGYGDSIK | VGRFGGYFDY | n.d. / n.d. / n.d. | n.d. | 0 of 9 |
| 17 | GFTFDDYACH | GRSWNSGSIHYADSVK | VGRGGGYFDY | n.d. / n.d. / 4.25 | 4.25 | 0 of 9 |
| 18 | GFTFDDRAMH | GISWNSGIIGYADSVK | VGRGGGYFLY | n.d. / n.d. / n.d. | n.d. | 1 of 9 (2.29) |
| 19 | GFTFDDYAMH | GIDWNSGSLGTADSVK | VGRGGGYFDY | n.d. / n.d. / n.d. | n.d. | 0 of 9 |
| 20 | GFTRDDYAMH | GISWNSGSIEYADSVK | LGRGGGYFDY | 4.51 / n.d. / n.d. | 4.51 | 0 of 9 |
| 21 | GFTFDDYAMH | GRWWNSGKIGYADSVK | VGRGGGYFDY | n.d. / 5.99 / n.d. | 5.99 | 1 of 9 (4.96) |
| 22 | GFTFDDYAYH | GISWHSGSIGYADFVK | VGRGGGYFDY | 5.16 / n.d. / n.d. | 5.16 | 1 of 9 (3.82) |
| 23 | RFTFDDYAYH | KISWNSGSIGYADSVK | VGRGGGYFDY | 4.96 / 4.23 / n.d. | 4.60 | 6 of 9 (4.78) |
| 24 | GFTFDDYNMH | GISWNSGSIGYADIIK | VGRGGGYFDY | n.d. / n.d. / n.d. | n.d. | 0 of 9 |
| 25 | GFTFDDYAMH | HISWNSGSRGYADSVK | VGRGGGYMDY | 4.79 / 4.32 / n.d. | 4.56 | 2 of 9 (4.12) |
| 26 | GFWFDDYAMH | GISWNSGSIPYADSVK | KGRGGGYFDY | 3.94 / 6.23 / n.d. | 5.08 | 3 of 9 (4.33) |
| 27 | HFTQDDYAMR | GISWNSGSIGYADSVK | VGRGGGYFDY | n.d. / n.d. / n.d. | n.d. | 1 of 9 (3.99) |
| 28 | GFTFDEYAMH | GISWNSQSIGYADSVK | VGRGGGYFDA | 0.86 / 0.85 / 0.34 | 0.68 | 2 of 9 (5.14) |
| 29 | GFTFPDYAMH | GESWNSGSIGYADSVK | VGRGGGYFDT | n.d. / n.d. / n.d. | n.d. | 2 of 9 (3.98) |
| 30 | GFTFKDYAMH | GISWNSGSIGEADSVK | VGRGNGYFDY | 5.14 / n.d. / n.d. | 5.14 | 2 of 9 (4.44) |
| 31 | PFTFDDYAMH | GISENSMSIGYADSVK | VGRGGGYFDY | n.d. / n.d. / n.d. | n.d. | 1 of 9 (2.77) |
| 32 | GFTFDDYAMH | GISWNPGSMGYADSVK | VRRGGGYFDY | n.d. / n.d. / n.d. | n.d. | 1 of 9 (3.78) |
| 33 | GFTFDDYAMH | GISWNSGQIGYAWSVK | VGRGGGYFYY | n.d. / n.d. / n.d. | n.d. | 0 of 9 |
| 34 | GFTFDDYAMH | GISWNSGSKGYADSVP | VQRGGGYFDY | 3.81 / n.d. / n.d. | 3.81 | 2 of 9 (4.32) |
| 35 | GFTFDDYAMH | GISWNSFSIGYADSVK | VGRGGFYFCY | n.d. / n.d. / n.d. | n.d. | 1 of 9 (3.58) |

From the list, the first 3 with no signal in any replicate:

| CDR-H1 | CDR-H2 | CDR-H3 | log10 Kd (nM) by replicate | log10 Kd (nM), mean | control signals |
|---|---|---|---|---|---|
| GFTFDDYAMH | GIGWNSGSIGYADSVA | VGRGGGYNDY | n.d. / n.d. / n.d. | n.d. | 2 of 9 (3.42) |
| EFTFDDYAMH | LISWNSGSIGYADSVK | YGRGGGYFDY | n.d. / n.d. / n.d. | n.d. | 0 of 9 |
| GFTFYDYAMH | GISWNSGSIGYADSVK | RGRGGGYFDY | n.d. / n.d. / n.d. | n.d. | 0 of 9 |

Nonspecific signal, from three strains lacking the peptide, appeared in 21% of pairings of library AAYL51, centred on 4.54 (5% of these signals below 3.26); values are not corrected for it. Also given: how often the same scFv was detected with the empty control strains, with their mean in brackets.